Reference: patent US20210206861A1

Amino acid sequences for entries named in this document (tags omitted). Residues count along the entry.
UniProt P05112, 25-153 limits assumed: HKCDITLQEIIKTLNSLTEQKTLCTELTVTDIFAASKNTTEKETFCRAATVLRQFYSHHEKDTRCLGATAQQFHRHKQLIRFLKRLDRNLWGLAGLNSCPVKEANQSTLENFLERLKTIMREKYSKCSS

Target: IL-4 (purchased from R&D systems) (UniProt P05112)
Assay: cell-based or functional assay

Substance: IL-4R-ECD-hFc (from UniProt P24394 26-232) (Fc fusion)
- IC50 of inhibition of IL-4-induced TF-1 cell proliferation: 0.28 µg/mL
